The results in this text go back to ChEMBL document CHEMBL1153781, “Prediction of volume of distribution values in human using immobilized artificial membrane partitioning coefficients, the fraction of compound ionized and plasma protein binding data” (Eur J Med Chem, 2009).

As usually defined, the pKa is the pH at which an ionisable group is half protonated. Lower therefore signals a group that gives up its proton readily.

The series is described as follows: Dissociation constant, pKa of the compound. Type of series: physicochemical.

On to `CCC[C@@H]1C[C@@H](C(=O)N[C@@H]([C@H]2O[C@H](SC)[C@H](O)[C@@H](O)[C@H]2O)[C@@H](C)O)N(C)C1` [LINCOMYCIN], for which the pKa was determined as 7.65.
